# Assays:
# Sequences of proteins named here, by UniProt entry; tags and fusion partners are left off. A change or cut given only in a name is not applied to a line headed by its entry.
# UniProt P06493, whole entry: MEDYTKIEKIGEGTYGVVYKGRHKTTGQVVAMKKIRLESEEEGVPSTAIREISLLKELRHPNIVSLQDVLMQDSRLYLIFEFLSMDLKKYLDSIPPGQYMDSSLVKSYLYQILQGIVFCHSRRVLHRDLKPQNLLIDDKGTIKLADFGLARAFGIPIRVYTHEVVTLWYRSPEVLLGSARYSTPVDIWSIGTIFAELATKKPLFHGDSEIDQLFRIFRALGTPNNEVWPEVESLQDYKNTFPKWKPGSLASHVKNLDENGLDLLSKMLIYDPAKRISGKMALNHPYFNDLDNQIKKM
# UniProt P00519, whole entry: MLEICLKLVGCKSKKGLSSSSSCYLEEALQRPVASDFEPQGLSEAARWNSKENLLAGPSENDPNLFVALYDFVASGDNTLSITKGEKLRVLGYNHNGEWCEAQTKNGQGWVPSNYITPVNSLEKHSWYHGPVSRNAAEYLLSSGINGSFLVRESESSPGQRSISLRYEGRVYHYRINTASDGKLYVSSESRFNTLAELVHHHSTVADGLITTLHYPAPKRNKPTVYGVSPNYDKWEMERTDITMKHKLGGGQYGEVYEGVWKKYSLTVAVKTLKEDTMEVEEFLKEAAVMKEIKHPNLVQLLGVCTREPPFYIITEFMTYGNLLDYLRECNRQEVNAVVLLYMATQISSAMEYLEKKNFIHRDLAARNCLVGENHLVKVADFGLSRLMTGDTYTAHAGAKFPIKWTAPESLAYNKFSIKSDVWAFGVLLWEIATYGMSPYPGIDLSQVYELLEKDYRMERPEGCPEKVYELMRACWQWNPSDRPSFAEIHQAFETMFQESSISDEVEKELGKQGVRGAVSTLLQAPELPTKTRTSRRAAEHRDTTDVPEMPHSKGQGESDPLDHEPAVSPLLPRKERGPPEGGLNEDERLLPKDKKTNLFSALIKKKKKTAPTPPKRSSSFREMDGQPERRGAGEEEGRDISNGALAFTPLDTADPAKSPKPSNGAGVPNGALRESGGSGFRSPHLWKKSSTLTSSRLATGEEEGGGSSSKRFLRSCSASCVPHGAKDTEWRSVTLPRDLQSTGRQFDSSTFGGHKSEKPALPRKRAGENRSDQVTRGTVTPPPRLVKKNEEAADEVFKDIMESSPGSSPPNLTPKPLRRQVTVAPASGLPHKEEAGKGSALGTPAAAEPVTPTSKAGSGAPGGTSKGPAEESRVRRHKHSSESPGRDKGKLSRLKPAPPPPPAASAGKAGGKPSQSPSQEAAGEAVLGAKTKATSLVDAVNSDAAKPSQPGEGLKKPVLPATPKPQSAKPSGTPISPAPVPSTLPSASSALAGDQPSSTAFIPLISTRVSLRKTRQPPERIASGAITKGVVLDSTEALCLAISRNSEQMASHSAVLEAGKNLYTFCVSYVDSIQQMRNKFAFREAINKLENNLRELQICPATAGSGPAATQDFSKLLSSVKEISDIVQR
# UniProt Q00526: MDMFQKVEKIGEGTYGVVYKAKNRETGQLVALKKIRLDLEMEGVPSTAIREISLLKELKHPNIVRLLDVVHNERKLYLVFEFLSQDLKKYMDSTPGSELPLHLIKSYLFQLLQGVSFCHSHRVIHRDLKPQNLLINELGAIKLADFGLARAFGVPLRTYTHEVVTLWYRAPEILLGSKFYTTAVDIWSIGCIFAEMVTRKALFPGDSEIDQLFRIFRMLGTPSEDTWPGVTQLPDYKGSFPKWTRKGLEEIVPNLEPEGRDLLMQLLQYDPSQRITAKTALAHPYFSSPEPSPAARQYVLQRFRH
# Test in all cases: Kinase Profiling Assay
# Format in all cases: biochemical
# Settings in all cases: 100 μM peptide
# JAK3(h) = molecular target: T1, JAK3(h) (Homo sapiens, UniProt P52333)
# T1 construct: purchased Millipore
# T1 sequence (P52333 1-1124): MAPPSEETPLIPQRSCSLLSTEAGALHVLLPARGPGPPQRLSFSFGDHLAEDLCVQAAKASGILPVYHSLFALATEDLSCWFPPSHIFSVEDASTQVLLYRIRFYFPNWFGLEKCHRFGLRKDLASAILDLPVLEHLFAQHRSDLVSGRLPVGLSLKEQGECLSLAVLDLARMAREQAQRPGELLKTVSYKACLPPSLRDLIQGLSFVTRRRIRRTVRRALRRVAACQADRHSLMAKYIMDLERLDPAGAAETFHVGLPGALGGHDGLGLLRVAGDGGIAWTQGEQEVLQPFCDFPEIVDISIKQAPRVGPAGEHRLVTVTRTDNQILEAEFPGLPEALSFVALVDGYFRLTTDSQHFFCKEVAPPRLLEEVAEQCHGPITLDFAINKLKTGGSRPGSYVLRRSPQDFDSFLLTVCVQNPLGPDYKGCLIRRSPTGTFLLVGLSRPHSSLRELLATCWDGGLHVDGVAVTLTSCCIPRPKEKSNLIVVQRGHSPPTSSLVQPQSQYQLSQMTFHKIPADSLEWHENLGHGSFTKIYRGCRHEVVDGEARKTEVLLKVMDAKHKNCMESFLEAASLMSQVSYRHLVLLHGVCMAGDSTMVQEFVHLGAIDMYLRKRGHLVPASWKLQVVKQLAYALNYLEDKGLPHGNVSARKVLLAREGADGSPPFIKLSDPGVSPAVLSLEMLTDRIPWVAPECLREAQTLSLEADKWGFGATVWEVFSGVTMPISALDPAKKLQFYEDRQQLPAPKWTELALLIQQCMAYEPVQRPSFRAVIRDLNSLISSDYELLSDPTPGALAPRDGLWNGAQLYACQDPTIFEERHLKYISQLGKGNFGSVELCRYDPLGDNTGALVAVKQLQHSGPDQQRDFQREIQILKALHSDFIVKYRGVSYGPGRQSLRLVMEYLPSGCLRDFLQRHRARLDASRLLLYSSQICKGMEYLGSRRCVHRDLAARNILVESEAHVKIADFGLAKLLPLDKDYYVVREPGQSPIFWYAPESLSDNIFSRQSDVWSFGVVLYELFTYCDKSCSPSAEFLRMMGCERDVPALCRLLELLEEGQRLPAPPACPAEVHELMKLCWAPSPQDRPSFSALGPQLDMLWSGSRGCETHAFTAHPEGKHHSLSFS
# Procedure, shortened: (§1)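 Duplicate activity readings per kinase; peptide inhibitors of MK2 profiled against 266 human kinases for selectivity.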
# FGFR2(N549H)(h) = FGFR2(N549H)(h) (Homo sapiens, UniProt P21802, N549H)
# Protocol: Every kinase activity measurement was conducted in duplicate.
# In addition to determining the IC50 of the compound, the specificity of MK2 inhibitory peptides was assessed by examining activities of all 266 human kinases available for testing in the Millipore kinase profiling service (Table 1).
# EGFR(T790M)(h) = EGFR(T790M)(h) (Homo sapiens, UniProt P00533, T790M)
# Procedure, shortened: as §1
# CDK1/cyclinB(h) = CDK1/cyclinB(h) (Homo sapiens, UniProt P06493)
# Procedure, shortened: as §1
# TAO3(h) = molecular target: T2, TAO3(h) (Homo sapiens, UniProt Q9H2K8)
# T2 sequence (Q9H2K8 1-898): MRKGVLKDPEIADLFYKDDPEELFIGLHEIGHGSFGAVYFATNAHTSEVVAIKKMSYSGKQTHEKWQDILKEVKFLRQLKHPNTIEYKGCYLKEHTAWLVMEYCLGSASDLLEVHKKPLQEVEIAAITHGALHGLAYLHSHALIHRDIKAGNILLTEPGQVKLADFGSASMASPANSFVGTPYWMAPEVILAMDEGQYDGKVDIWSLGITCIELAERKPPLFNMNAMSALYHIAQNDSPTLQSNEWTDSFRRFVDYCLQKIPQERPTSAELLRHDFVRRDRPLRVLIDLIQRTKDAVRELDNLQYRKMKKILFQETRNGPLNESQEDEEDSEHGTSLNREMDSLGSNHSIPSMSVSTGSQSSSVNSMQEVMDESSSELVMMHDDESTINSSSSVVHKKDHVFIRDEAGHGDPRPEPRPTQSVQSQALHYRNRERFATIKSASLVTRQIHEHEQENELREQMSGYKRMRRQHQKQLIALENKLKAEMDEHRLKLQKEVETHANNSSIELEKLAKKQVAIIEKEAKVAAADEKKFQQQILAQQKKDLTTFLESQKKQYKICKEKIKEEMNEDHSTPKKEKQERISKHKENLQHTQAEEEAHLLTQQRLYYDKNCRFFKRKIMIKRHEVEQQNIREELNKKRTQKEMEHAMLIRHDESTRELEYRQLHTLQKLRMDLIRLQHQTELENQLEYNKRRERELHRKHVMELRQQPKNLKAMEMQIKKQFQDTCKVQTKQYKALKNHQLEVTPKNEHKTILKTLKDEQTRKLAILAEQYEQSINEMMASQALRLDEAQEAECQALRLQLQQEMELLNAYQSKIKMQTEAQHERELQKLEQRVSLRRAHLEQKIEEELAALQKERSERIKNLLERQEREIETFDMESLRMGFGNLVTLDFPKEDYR
# Procedure, shortened: as §1
# CHK1(h) = molecular target: T3, CHK1(h) (Homo sapiens, UniProt O14757)
# T3 sequence (O14757 1-476): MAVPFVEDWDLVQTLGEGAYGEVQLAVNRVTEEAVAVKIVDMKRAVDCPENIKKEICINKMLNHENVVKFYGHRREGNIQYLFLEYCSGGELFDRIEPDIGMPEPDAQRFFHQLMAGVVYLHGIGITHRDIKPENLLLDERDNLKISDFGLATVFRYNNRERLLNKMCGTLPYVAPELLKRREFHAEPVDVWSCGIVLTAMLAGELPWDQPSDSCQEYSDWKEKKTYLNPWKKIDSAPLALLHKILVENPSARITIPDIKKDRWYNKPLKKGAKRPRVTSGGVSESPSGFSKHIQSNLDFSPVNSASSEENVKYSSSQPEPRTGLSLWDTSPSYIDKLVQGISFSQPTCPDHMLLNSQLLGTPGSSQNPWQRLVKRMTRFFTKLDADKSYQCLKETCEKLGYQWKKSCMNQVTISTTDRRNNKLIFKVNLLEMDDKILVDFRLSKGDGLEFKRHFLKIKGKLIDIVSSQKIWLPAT
# Procedure, shortened: as §1
# Flt3(D835Y)(h) = Flt3(D835Y)(h) (Homo sapiens, UniProt P36888, D835Y)
# Procedure, shortened: as §1
# Abl(h) = Abl(h) (Homo sapiens, UniProt P00519)
# Procedure, shortened: as §1
# CDK3/cyclinE(h) = CDK3/cyclinE(h) (Homo sapiens, UniProt Q00526)
# Procedure, shortened: as §1
sequence,measurement,setting,value
YARAAARQARAKALNRQLGVA (Mammalian) [MMI-0200],JAK3(h) % activity,JAK3(h),117%
same,FGFR2(N549H)(h) % activity,FGFR2(N549H)(h),104%
same,EGFR(T790M)(h) % activity,EGFR(T790M)(h),113%
same,CDK1/cyclinB(h) % activity,CDK1/cyclinB(h),115%
same,TAO3(h) % activity,TAO3(h),102%
same,CHK1(h) % activity,CHK1(h),115%
same,Flt3(D835Y)(h) % activity,Flt3(D835Y)(h),115%
same,Abl(h) % activity,Abl(h),107%
same,CDK3/cyclinE(h) % activity,CDK3/cyclinE(h),104%

# — patent US10562947B2, “Compositions and methods for preventing or treating diseases, conditions or processes characterized by aberrant fibroblast proliferation and extracellular matrix deposition” (MOERAE MATRIX, INC., priority 2011, dated 2020)
